The text below walks through data of ChEMBL document CHEMBL3797021, “Design, synthesis, and biological evaluation of substrate-competitive inhibitors of C-terminal Binding Protein (CtBP)” (Bioorg Med Chem, 2016).

The nature of assay [1]: Selectivity ratio of IC50 for rabbit muscle L-lactate dehydrogenase to IC50 for recombinant His6-tagged CtBP2 (31 to 384 residues) (unknown origin) dehydrogenase activity.
For assay [2], the target named is C-terminal-binding protein 2 (Homo sapiens, UniProt P56545). Briefly: Inhibition of CtBP2 (unknown origin) transfected in human HCT116 p53-/- cells assessed as increase in Bik transcription at 1 mM by dual luciferase reporter gene assay relative to control. The note with it: HCT-116. It is filed as cell-based.

Each structure is given as a SMILES string.

As for `O=C(O)/C(Cc1cccc(Cl)c1)=N\O`, in assay [1], the Ratio IC50 was > 170. Further, the fold change (FC) in assay [2] was found to be 1.41.
